Assay results: PubChem BioAssay (Tox21)
Only a part is listed here, and it is no random draw. Records with an inconclusive call do not appear. Activity calls are given as the source filed them. The call rests on the fitted dose curve.

The chains behind the UniProt entries cited, without tags or fusion partners. Where a name states a change or a piece, a line headed by the entry shows the natural chain unless it says otherwise.
UniProt Q03181: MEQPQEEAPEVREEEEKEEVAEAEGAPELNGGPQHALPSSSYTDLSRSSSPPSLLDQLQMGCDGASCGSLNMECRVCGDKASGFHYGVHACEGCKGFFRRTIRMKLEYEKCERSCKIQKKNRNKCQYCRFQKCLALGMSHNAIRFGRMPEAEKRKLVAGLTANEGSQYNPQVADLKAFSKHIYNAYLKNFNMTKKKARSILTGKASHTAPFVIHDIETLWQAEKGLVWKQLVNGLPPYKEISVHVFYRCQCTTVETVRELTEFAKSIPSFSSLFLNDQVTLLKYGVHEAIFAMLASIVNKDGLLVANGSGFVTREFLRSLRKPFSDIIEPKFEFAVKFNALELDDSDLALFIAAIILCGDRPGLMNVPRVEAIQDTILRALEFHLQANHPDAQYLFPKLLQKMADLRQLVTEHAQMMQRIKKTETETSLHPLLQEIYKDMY

Each compound was assayed against Peroxisome proliferator-activated receptor delta (Homo sapiens) (UniProt Q03181) (assay: qHTS assay to identify small molecule agonists of the peroxisome proliferator-activated receptor delta (PPARd) signaling pathway (AID 743212)). Details: HEK293H PPARd-UAS-bla, beta-lactamase FRET ratio, 17 h; at 62.6 µM (top of the series).
Description: U.S. Tox21 Program National Center for Advancing Translational Sciences [NCATS] NIH Chemical Genomics Center [NCGC] U.S. Environmental Protection Agency [EPA] National Institutes of Environmental Health Sciences [NIEHS] National Toxicology Program [NTP] U.S. Food and Drug Administration [FDA] Tox21 Assay Overview: The peroxisome proliferator-activated receptors (PPARs) are lipid-activated transcription factors of the nuclear receptor superfamily with three distinct subtypes namely PPAR alpha, PPAR delta (PPARd) and PPAR gamma. All these subtypes heterodimerizes with Retinoid X receptor (RXR) and have different physiological functions. […] To identify the compounds that activate PPAR-delta signaling, GeneBLAzer PPAR delta UAS-bla HEK293H cell line (Invitrogen, Carlsbad, CA, USA) containing a beta-lactamase reporter gene under the control of an Upstream Activator Sequence (UAS) was used to screen the Tox21 compound library.
Tox21 Assay Protocol Summary: PPARd-bla cells were dispensed at 3000 cells/6uL/well in 1536-well black wall/clear bottom plates using a Multidrop Combi (Thermo Fisher Scientific, Waltham, MA) dispenser. After the assay plates were incubated at 37 C and 5% CO2 for 5 h, 23 nL of compounds dissolved in DMSO, positive controls or DMSO only was transferred to the assay plate by a Pintool station (Kalypsys, San Diego, CA). The assay plates were incubated at 37C for 17 h. After 1 uL of LiveBLAzerTM B/G FRET substrate was added using a Bioraptr Flying Reagent Dispenser (FRD) workstation (Beckman Coulter, Indianapolis, IN, USA), the plates were incubated at room temperature for 2 h, and fluorescence intensity was measured by an Envision plate reader (PerkinElmer, Shelton, CT).
On the % scale 0 is the no-effect control and ±100 the full control effect.

Compound | activation
CN(C(=O)Cc1ccc(Cl)c(Cl)c1)[C@H]1CC[C@@]2(CCCO2)C[C@@H]1N1CCCC1 | inactive: -1.32%
ClP(Cl)c1ccccc1 | inactive: -2.44%
O=[P+](Oc1ccccc1)Oc1ccccc1 | inactive: -1.82%
CC(C)CCCCCCCOP(OCCCCCCCC(C)C)Oc1ccccc1 | inactive: -1.7%
O=P(Cl)(Oc1ccccc1)Oc1ccccc1 | inactive: 1.46%
CCCCC(CC)CO[P+](=O)OCC(CC)CCCC (stereo unspecified) | inactive: -1.93%
CN(C(=O)Cc1ccccc1)[C@H]1CC[C@@]2(CCCO2)C[C@@H]1N1CCCC1 | inactive: 1.11%
O=[p+]1oc2ccccc2c2ccccc21 (stereo unspecified) | inactive: -1.26%
O=P(Cl)(Cl)c1ccccc1 | inactive: -1.11%
CCOC(=O)Cl | inactive: -0.566%
COC(=O)Cl | inactive: -3.33%
